Results on 26 compounds are retold here after PubChem BioAssay AID485 (The Scripps Research Institute Molecular Screening Center, 2006).

By UniProt entry, the sequences of proteins in these tests, tags left out.
UniProt Q99500, whole entry: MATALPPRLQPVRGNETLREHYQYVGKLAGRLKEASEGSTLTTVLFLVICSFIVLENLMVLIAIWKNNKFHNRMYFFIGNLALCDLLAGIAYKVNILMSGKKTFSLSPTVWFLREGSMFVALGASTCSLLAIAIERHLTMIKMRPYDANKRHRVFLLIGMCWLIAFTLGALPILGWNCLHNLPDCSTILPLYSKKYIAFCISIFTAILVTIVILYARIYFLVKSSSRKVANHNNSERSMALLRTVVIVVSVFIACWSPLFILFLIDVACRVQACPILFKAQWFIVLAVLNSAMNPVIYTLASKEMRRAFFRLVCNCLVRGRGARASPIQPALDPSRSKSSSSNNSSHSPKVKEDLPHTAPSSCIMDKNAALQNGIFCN

Only a part is listed here, and it is no random draw. The source made the active and inactive calls.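 Rule for the calls: active = inhibition above the plate cutoff, the mean inhibition of test wells on that plate plus 3 SD (cut at about 28% in these data); inactive = the rest.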

In this experiment the target is Sphingosine 1-phosphate receptor 3 (Homo sapiens) (UniProt Q99500). The experiment can be described thus: S1P3 receptor antagonists, primary screen, cell-based (AID 485).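 Note: cells challenged with S1P at its EC80 of 0.8 µM; blue over green emission ratio from cleaved BLA substrate after 4 h stimulation; 0% = S1P-stimulated wells and 100% = unstimulated DMSO-only wells.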 Particulars: CHO S1P3 NFAT-BLA reporter, FRET fluorescence, antagonist mode; at 4.98 µM; hits give high values.
By inhibition is commonly meant the change of the read-out against control, counted positive when it falls. Take `COc1ccc(CN(CCCl)CCCl)cc1Cl`: the inhibition is inactive: -10.9%. `CN(C)c1cccc(C(=O)NCC2(N3CCCCC3)CCCCC2)c1`: the inhibition was inactive: -4.77%. Take `CC(C)c1ccc(NC2CCN(C(=O)OC(C)(C)C)CC2)cc1`: the inhibition was inactive: -3.58%.

In the case of `CN1CCN(CCOC(=O)C(O)(c2ccccc2)c2ccccc2)CC1`, the inhibition is inactive: -4.25%. For `COc1ccc(NC2CCN(C(=O)OC(C)(C)C)CC2)cc1` the value was inactive: -18.1%; for `O=C(NCC1(N2CCCCC2)CCCCC1)c1cccc([N+](=O)[O-])c1`, inactive: -17.5%; for `N#CC1(Nc2ccccc2)CCN(CCc2ccccc2)CC1`, inactive: -6.1%. Regarding `Cc1ccc(OCC(C)C)c(CN(CCCl)CCCl)c1`, the inhibition was inactive: 13.9%. For the compound `CCOc1ccc(C)cc1CN(CCCl)CCCl`, the inhibition is inactive: -0.29%. For `COc1ccc(NC2CCN(CCc3ccccc3)CC2)c(OC)c1`, the inhibition is inactive: -50.7%.

Consider `CCOC(=O)N1CCC(Nc2ccc(OC)cc2)CC1`, for which the inhibition was inactive: -17.9%. In the case of `O=C(OC1CN2CCC1CC2)C1c2ccccc2Oc2ccccc21` (stereo unspecified), the inhibition was inactive: -3.9%. Take `N#CC1(Nc2ccccc2)CCN(Cc2ccccc2)CC1`: the inhibition was inactive: 8%. For `COc1ccc(C(=O)NCC2(N3CCCCC3)CCCCC2)c(OC)c1OC` the value was inactive: -12.3%; for `CCC(CO)(C(=O)OC1CN2CCC1CC2)c1ccccc1` (stereo unspecified), inactive: -10.9%.

Consider `COc1cc(OC)cc(C(=O)NCC2(N3CCOCC3)CCCCC2)c1`, for which the inhibition is inactive: -17.1%. In the case of `CCCOc1ccc(C)cc1CN(CCCl)CCCl`, the inhibition was inactive: 4.36%. For the compound `CCOc1ncccc1C(=O)NCC1(N2CCOCC2)CCCCC1`, the inhibition is inactive: 9%.

`CC(C)(C)OC(=O)N1CCC(Nc2ccccc2)CC1`: the inhibition was inactive: 7.64%. In the case of `CCN1CCC(Nc2cccc(F)c2)CC1`, the inhibition was inactive: -0.17%.

Take `CN(C)c1ccc(C(=O)NCC2(N3CCCCC3)CCCCC2)cc1`: the inhibition was inactive: 6.95%. For `Fc1ccccc1NC1CCN(Cc2ccccc2)CC1` the value was inactive: -64.8%; for `N#Cc1ccc(C(=O)NCC2(N3CCCCC3)CCCCC2)cc1`, inactive: -34%. For `N/C(=N\O)c1c(N)no[n+]1[O-]`, the inhibition was inactive: 2.4%. As for `O=C(OC1CN2CCC1CC2)C1c2ccccc2C=Cc2ccccc21` (stereo unspecified), the inhibition is inactive: -2.13%.

For `COc1ccc(C(=O)NCC2(N3CCOCC3)CCCCC2)cc1OC`, the inhibition was inactive: -17%.
